Reference: publication PMC6321168, “Comparative Study on Excretive Characterization of Main Components in Herb Pair Notoginseng-Safflower and Single Herbs by LC–MS/MS” (Pharmaceutics, 2018)

Columns and labels:
[1] = Fecal excretion study in rats after oral NS, SF or CNS (LC–MS/MS); format: in vivo; details: for Accumulative excretion amount / Accumulative excretion percentage / Concentration / Excretion amount: rat feces
Protocol: The animal room was set at constant temperature of 20 ± 2 °C with humidity of 50 ± 20% and 12/12 h light/dark cycle.
(§1) Eighteen male rats were fasted for 12 h before starting the experiment. The rats were divided into three groups at random (n = 6) and received NS (60 mg/kg), SF (50 mg/kg), and NS (60 mg/kg) + SF (50 mg/kg), respectively, by oral gavage. The rats were placed in separate metabolic cages. The urine samples were collected at 0–2, 2–4, 4–6, 6–8, 8–12, 12–24, 24–36, 36–48, 48–72, 72–96, and 96–120 h. The feces samples were collected at 0–4, 4–8, 8–12, 12–24, 24–36, 36–48, 48–72, 72–96, and 96–120 h. The urine volume was recorded and the dry feces were measured for each collection period. Samples were stored at −80 °C until analysis.
Feces samples were homogenized in ultrapure water (1 g/15 mL), soaked for 30 min, ultrasonically extracted for 30 min and centrifuged at 9000 rpm for 8 min. An aliquot of 200 μL feces water extraction solution was mixed with 10 μL of IS and then extracted three times with water-saturated n-BuOH (150 μL). The upper organic phase was combined and evaporated to dryness using a ZLS-2 vacuum centrifugal concentrator. The residue was treated as the urine sample and a 1-μL aliquot was injected for LC–MS analysis.
Ultra fast liquid chromatography (UFLC) analysis was performed using a Shimadzu UFLC system (DGU-20A3R Degasser; LC-20AD pump; SIL-20AXR Autosampler; CTO-20AC Column Oven) (Nakagyo-Ku, Koyoto, Japan). […] Because of the different endogenous substances in the urine and feces samples, different elution gradients were used to alleviate the matrix effects for the analytes.
The mass spectrometric detection was performed on an ABSciex 4500 Qtrap mass spectrometer (ABSciex, Foster City, CA, USA) equipped with a negative electrospray ionization (ESI) interface using multiple reaction monitoring (MRM). The MS parameters were optimized under the selected ion monitoring conditions as follows: curtain gas, 35 psi; ionspray voltage, 4500 V; turbo gas temperature, 450 °C; GS1, 45 psi; GS2, 45 psi. All data were acquired and analyzed by Analyst software (Versions 1.6.2) from ABSciex.
(§2) The accumulative excretion percentage was calculated for each analyte as follows. Excretion at time (t) = [concentration of the analyte (ng/mL) at t] × total urine (or feces) volume (mL) at t. The cumulative excretion up to time t (mg) was expressed as a percent (%) cumulative excretion by dividing by the total amount of the analyte ingested (mg): % Cumulative Excretion = 100 × (Σt excretiont) total ingested.

[2] = Total excretion in urine and feces of rats; format: in vivo; details: each group (NS, SF, CNS)
Protocol: as §1, §2

CYP1A2 = details: in rats; cited from earlier work
CYP2C11 = details: in rats; cited from earlier work

For hydroxysafflor yellow A [HSYA], the Accumulative excretion amount ([1]; oral CNS 110 mg/kg, 4 h) was 21.012 ± 30.299 µg, the Accumulative excretion percentage ([1]; oral CNS 110 mg/kg, 4 h) was 2.084±3.005% and the Concentration ([1]; oral CNS 110 mg/kg, 4 h) was 1646 ± 2261 ng/mL. It also gave an Excretion amount ([1]; oral CNS 110 mg/kg, 4 h) of 21.013 ± 30.299 µg, an Accumulative excretion amount ([1]; oral CNS 110 mg/kg, 8 h) of 52.277 ± 28.669 µg and an Accumulative excretion percentage ([1]; oral CNS 110 mg/kg, 8 h) of 5.171±2.844%. For the same substance, the Concentration ([1]; oral CNS 110 mg/kg, 8 h) was 2095 ± 121 ng/mL, the Excretion amount ([1]; oral CNS 110 mg/kg, 8 h) was 31.265 ± 8.953 µg and the Accumulative excretion amount ([1]; oral CNS 110 mg/kg, 12 h) was 76.537 ± 34.048 µg. It also gave an Accumulative excretion percentage ([1]; oral CNS 110 mg/kg, 12 h) of 7.572±3.374%, a Concentration ([1]; oral CNS 110 mg/kg, 12 h) of 1660 ± 349 ng/mL and an Excretion amount ([1]; oral CNS 110 mg/kg, 12 h) of 24.260 ± 6.796 µg. The Accumulative excretion amount ([1]; oral CNS 110 mg/kg, 24 h) was 104.243 ± 34.486 µg, the Accumulative excretion percentage ([1]; oral CNS 110 mg/kg, 24 h) was 10.316±3.415% and the Concentration ([1]; oral CNS 110 mg/kg, 24 h) was 1829 ± 220 ng/mL. It also gave an Excretion amount ([1]; oral CNS 110 mg/kg, 24 h) of 27.706 ± 9.755 µg, an Accumulative excretion amount ([1]; oral CNS 110 mg/kg, 36 h) of 115.284 ± 36.570 µg and an Accumulative excretion percentage ([1]; oral CNS 110 mg/kg, 36 h) of 11.401±3.623%. It also gave a Concentration ([1]; oral CNS 110 mg/kg, 36 h) of 737 ± 37 ng/mL, an Excretion amount ([1]; oral CNS 110 mg/kg, 36 h) of 11.040 ± 3.298 µg and an Accumulative excretion amount ([1]; oral CNS 110 mg/kg, 48 h) of 125.551 ± 38.391 µg. For the same substance, the Accumulative excretion percentage ([1]; oral CNS 110 mg/kg, 48 h) was 12.422±3.804%, the Concentration ([1]; oral CNS 110 mg/kg, 48 h) was 688 ± 47 ng/mL and the Excretion amount ([1]; oral CNS 110 mg/kg, 48 h) was 10.267 ± 3.026 µg. For the same substance, the Accumulative excretion amount ([1]; oral CNS 110 mg/kg, 72 h) was 126.560 ± 38.340 µg, the Accumulative excretion percentage ([1]; oral CNS 110 mg/kg, 72 h) was 12.521±3.795% and the Concentration ([1]; oral CNS 110 mg/kg, 72 h) was 68 ± 28 ng/mL. The Excretion amount ([1]; oral CNS 110 mg/kg, 72 h) was 1.049 ± 0.586 µg, the Accumulative excretion amount ([1]; oral CNS 110 mg/kg, 96 h) was 126.874 ± 38.274 µg and the Accumulative excretion percentage ([1]; oral CNS 110 mg/kg, 96 h) was 12.556±3.795%. The Concentration ([1]; oral CNS 110 mg/kg, 96 h) was 17 ± 16 ng/mL, the Excretion amount ([1]; oral CNS 110 mg/kg, 96 h) was 0.274 ± 0.283 µg and the Accumulative excretion amount ([1]; oral CNS 110 mg/kg, 120 h) was 126.874 ± 38.274 µg. It also gave an Accumulative excretion percentage ([1]; oral CNS 110 mg/kg, 120 h) of 12.556±3.796%, an Accumulative excretion amount ([1]; oral SF 50 mg/kg, 4 h) of 43.994 ± 12.319 µg and an Accumulative excretion percentage ([1]; oral SF 50 mg/kg, 4 h) of 4.352±1.224%. For the same substance, the Concentration ([1]; oral SF 50 mg/kg, 4 h) was 2409 ± 352 ng/mL, the Excretion amount ([1]; oral SF 50 mg/kg, 4 h) was 43.994 ± 12.319 µg and the Accumulative excretion amount ([1]; oral SF 50 mg/kg, 8 h) was 80.066 ± 21.692 µg. The Accumulative excretion percentage ([1]; oral SF 50 mg/kg, 8 h) was 7.922±2.151%, the Concentration ([1]; oral SF 50 mg/kg, 8 h) was 1954 ± 115 ng/mL and the Excretion amount ([1]; oral SF 50 mg/kg, 8 h) was 36.072 ± 10.358 µg. It also gave an Accumulative excretion amount ([1]; oral SF 50 mg/kg, 12 h) of 119.118 ± 30.243 µg, an Accumulative excretion percentage ([1]; oral SF 50 mg/kg, 12 h) of 11.784±2.995% and a Concentration ([1]; oral SF 50 mg/kg, 12 h) of 2144 ± 142 ng/mL. It also gave an Excretion amount ([1]; oral SF 50 mg/kg, 12 h) of 39.052 ± 8.681 µg, an Accumulative excretion amount ([1]; oral SF 50 mg/kg, 24 h) of 133.750 ± 33.764 µg and an Accumulative excretion percentage ([1]; oral SF 50 mg/kg, 24 h) of 13.233±3.346%. It also gave a Concentration ([1]; oral SF 50 mg/kg, 24 h) of 791 ± 82 ng/mL, an Excretion amount ([1]; oral SF 50 mg/kg, 24 h) of 14.632 ± 4.256 µg and an Accumulative excretion amount ([1]; oral SF 50 mg/kg, 36 h) of 151.598 ± 37.989 µg. It also gave an Accumulative excretion percentage ([1]; oral SF 50 mg/kg, 36 h) of 15.001±3.762%, a Concentration ([1]; oral SF 50 mg/kg, 36 h) of 975 ± 39 ng/mL and an Excretion amount ([1]; oral SF 50 mg/kg, 36 h) of 17.848 ± 4.279 µg. The Accumulative excretion amount ([1]; oral SF 50 mg/kg, 48 h) was 152.707 ± 38.286 µg, the Accumulative excretion percentage ([1]; oral SF 50 mg/kg, 48 h) was 15.115±3.794% and the Concentration ([1]; oral SF 50 mg/kg, 48 h) was 60 ± 2 ng/mL. The Excretion amount ([1]; oral SF 50 mg/kg, 48 h) was 1.109 ± 0.297 µg, the Accumulative excretion amount ([1]; oral SF 50 mg/kg, 72 h) was 153.277 ± 38.442 µg and the Accumulative excretion percentage ([1]; oral SF 50 mg/kg, 72 h) was 15.161±3.803%. It also gave a Concentration ([1]; oral SF 50 mg/kg, 72 h) of 31 ± 2 ng/mL, an Excretion amount ([1]; oral SF 50 mg/kg, 72 h) of 0.570 ± 0.162 µg and an Accumulative excretion amount ([1]; oral SF 50 mg/kg, 96 h) of 153.277 ± 38.442 µg. For the same substance, the Accumulative excretion percentage ([1]; oral SF 50 mg/kg, 96 h) was 15.156±3.807%, the Accumulative excretion amount ([1]; oral SF 50 mg/kg, 120 h) was 153.277 ± 38.442 µg and the Accumulative excretion percentage ([1]; oral SF 50 mg/kg, 120 h) was 15.159±3.802%. For the same substance, the “cumulative fecal excretion ratio in the CNS group compared with the SF group” value ([1]; rats) was 0.83 times, the “cumulative excretion ratio in feces” value ([1]; rats, oral CNS 110 mg/kg) was 12.55% and the “cumulative excretion ratio in feces” value ([1]; rats, oral SF 50 mg/kg) was 15.16%. For the same substance, the “total excretion ratios in the urine and feces” value [2] was “less than 18%”, the “inhibitory effect on CYP1A2” value (CYP1A2) was “significant inhibitory effects” and the “inhibitory effect on CYP2C11” value (CYP2C11) was “significant inhibitory effects”.
